We go through one molecule from PubChem BioAssay AID434979 (Johns Hopkins Ion Channel Center, 2010).

Only a part is listed here, and it is no random draw. The source made the active and inactive calls.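 The calls were made as follows: active = signal rise over 3 SD above mean of control wells given weak agonist, in both repeats and first screen; inactive = the rest.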

The subject of this assay is TRPC4 (mouse), co-expressed with 5HT1a in HEK293. The assay can be described thus: enhancement of serotonin-evoked TRPC4 response – cell-based, second counter screen, HEK293 TRPC4/5HT1a, Fluo-4, counter-screen for TRPC4 potentiator project, confirmation (AID 434979). The note with it: Fluo-4 calcium flux, at 10 µM, active compounds read high, serotonin added at its EC20 dose. A general note: The purpose of a counterscreen is to sort out artefacts and off-target activity.
With `CN(C)C1(CNC(=O)c2ccc(Cl)c(S(N)(=O)=O)c2)CCCCC1`, the potentiation was inactive: 0%.
